Results reported in US7081460B2, “Quinazoline and quinazoline-like compounds for the treatment of integrin-mediated disorders” (Ortho-McNeil Pharmaceutical, Inc., priority 2001, dated 2006).

Amino acid sequences for entries named in this document (tags omitted). Residues count along the entry.
UniProt P05106, 27-788 limits assumed: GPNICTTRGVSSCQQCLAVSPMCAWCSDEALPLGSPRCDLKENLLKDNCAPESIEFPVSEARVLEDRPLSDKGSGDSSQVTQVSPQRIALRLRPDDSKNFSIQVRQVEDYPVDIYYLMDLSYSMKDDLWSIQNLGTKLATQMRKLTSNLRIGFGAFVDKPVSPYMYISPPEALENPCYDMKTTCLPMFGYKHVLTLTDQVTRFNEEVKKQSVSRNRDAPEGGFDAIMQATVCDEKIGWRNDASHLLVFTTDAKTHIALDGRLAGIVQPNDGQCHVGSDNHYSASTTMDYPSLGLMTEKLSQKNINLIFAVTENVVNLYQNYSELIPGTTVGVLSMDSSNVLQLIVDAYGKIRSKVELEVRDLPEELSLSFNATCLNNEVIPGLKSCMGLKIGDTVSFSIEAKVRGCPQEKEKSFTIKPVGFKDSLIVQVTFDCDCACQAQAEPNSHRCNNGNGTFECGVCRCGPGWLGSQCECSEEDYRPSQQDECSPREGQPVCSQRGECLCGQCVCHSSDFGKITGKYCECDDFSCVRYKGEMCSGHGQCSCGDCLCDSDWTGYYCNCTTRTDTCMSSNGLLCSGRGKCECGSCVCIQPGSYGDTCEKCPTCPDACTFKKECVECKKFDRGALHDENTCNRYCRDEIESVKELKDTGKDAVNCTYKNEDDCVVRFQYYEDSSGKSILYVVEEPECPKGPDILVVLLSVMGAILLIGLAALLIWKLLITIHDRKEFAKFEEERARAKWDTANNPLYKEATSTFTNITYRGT
UniProt P08514, 32-887 limits assumed: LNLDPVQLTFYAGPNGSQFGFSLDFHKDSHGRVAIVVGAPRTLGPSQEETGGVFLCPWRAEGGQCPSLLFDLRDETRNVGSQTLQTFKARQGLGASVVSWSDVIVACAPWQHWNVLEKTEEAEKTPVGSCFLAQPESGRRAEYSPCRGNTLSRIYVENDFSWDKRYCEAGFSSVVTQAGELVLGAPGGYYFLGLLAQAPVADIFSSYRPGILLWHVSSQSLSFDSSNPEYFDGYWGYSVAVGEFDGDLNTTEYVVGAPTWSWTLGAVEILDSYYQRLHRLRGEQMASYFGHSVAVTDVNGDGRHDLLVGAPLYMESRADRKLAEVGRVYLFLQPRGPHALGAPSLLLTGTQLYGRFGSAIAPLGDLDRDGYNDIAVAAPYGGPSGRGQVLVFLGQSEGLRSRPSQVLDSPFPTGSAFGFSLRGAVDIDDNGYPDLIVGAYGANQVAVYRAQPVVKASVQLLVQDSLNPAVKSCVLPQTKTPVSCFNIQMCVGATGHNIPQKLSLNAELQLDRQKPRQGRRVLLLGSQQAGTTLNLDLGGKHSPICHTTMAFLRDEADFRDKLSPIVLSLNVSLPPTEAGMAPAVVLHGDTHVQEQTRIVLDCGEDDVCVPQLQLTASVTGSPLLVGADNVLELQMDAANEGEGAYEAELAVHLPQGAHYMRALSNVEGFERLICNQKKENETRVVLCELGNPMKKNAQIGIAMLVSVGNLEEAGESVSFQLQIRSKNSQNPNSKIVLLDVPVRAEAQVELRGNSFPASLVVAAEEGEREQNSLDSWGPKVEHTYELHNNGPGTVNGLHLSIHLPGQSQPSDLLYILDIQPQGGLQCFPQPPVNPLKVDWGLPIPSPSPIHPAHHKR
UniProt P08514, 891-1039 partner limits assumed: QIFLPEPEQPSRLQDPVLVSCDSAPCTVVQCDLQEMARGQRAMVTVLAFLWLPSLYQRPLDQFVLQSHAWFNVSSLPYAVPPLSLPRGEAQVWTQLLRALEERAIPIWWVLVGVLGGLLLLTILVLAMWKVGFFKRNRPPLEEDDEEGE
UniProt P06756, 31-889 limits assumed: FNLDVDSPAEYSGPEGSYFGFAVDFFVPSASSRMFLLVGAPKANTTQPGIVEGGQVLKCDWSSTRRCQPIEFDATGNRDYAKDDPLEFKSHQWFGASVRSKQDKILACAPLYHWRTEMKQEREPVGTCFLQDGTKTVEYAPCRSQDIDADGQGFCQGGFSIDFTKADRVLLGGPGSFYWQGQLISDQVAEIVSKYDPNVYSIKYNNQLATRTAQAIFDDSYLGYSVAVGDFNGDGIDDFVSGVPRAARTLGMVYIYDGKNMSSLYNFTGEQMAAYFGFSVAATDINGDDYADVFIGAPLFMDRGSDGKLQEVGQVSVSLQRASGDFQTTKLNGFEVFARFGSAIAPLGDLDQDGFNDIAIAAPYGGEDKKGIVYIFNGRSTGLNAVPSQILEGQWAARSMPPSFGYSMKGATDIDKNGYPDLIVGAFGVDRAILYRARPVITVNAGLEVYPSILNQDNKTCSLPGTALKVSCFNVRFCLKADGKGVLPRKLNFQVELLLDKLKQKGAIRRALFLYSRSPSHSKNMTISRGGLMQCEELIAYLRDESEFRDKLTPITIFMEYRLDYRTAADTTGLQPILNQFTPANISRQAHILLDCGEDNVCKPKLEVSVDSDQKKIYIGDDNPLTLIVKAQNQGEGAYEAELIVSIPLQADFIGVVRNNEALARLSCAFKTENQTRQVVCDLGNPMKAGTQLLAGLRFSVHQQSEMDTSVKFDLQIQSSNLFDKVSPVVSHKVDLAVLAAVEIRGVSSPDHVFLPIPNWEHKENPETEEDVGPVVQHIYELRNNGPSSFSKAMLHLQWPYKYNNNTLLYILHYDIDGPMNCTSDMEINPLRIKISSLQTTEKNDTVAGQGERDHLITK
UniProt P06756, 891-1048 partner limits assumed: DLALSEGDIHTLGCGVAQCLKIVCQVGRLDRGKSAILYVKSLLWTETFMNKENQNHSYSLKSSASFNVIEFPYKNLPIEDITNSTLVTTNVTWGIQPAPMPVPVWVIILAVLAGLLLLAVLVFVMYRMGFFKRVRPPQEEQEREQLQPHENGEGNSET

How the values were obtained:
GPIIb/IIIa = GPIIb/IIIa (Homo sapiens, UniProt P05106+P08514); experiment: In vitro solid phase purified glycoprotein IIb/IIIa binding assay (biotinylated fibrinogen); details: read-out: GPIIb/IIIa Binding IC50, RGD-affinity purified GPIIb/IIIa, tested form: Na salt
Human αvβ3 = Human αvβ3 (Homo sapiens, UniProt P05106+P06756); experiment: In vitro solid phase purified αvβ3 binding assay (vitronectin/αvβ3); details: read-out: αvβ3 Binding IC50; isolated human αvβ3, 5 nM vitronectin; tested form: Na salt

## Cc1c(C)c(C)c(S(=O)(=O)N[C@@H](Cc2nc3ccc(/C=C/CNC4=NCCN4)cc3c(=O)[nH]2)C(=O)O)c(C)c1C
GPIIb/IIIa
  IC50: 29 nM
Human αvβ3
  IC50: 3.4 nM
